Drawing on ChEMBL document CHEMBL1138800, “Synthesis and biological evaluation of novel N6-[4-(substituted)sulfonamidophenylcarbamoyl]adenosine-5'-uronamides as A3 adenosine receptor agonists” (J Med Chem, 2004), this text covers Ki and Ratio for two compounds.

Amino acid sequences for entries named in this document (tags omitted).
UniProt P30542, whole entry: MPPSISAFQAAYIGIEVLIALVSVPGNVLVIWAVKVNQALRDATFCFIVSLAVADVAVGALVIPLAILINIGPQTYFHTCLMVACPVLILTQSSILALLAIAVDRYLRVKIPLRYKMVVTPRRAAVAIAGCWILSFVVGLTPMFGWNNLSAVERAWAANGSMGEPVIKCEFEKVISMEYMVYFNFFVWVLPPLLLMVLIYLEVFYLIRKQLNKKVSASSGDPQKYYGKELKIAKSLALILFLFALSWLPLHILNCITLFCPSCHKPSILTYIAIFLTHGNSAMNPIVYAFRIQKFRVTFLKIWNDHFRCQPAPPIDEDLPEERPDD
UniProt P0DMS8, whole entry, looked up: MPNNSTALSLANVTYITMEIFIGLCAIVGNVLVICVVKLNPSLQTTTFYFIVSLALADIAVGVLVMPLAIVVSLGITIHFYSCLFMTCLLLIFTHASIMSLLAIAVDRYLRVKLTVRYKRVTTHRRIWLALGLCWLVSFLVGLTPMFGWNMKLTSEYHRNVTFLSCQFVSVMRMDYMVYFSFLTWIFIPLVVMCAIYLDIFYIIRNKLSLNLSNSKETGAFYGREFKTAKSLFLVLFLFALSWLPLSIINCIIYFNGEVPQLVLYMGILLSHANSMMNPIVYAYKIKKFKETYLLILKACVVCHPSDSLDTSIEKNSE

SMILES strings stand for the structures.

In one assay the target is Adenosine receptor A2a (Homo sapiens, UniProt P29274). The assay can be described thus: Displacement of [3H]CGS-21680 binding to Adenosine A2 receptor expressed in CHO cells. The class given is cell-based.
The target of a further assay is Adenosine receptor A1 (Homo sapiens, UniProt P30542). The experiment in a line: Displacement of [3H]CHA binding to Adenosine A1 receptor expressed in CHO cells. The class given is cell-based.
Assay [1] has as its target Adenosine receptors; A1 & A3 (Homo sapiens) (UniProt P30542+P0DMS8). The assay can be described thus: Ratio of binding affinity for Adenosine A1 and Adenosine A3 receptors. The class given is protein assay.

For `CCNC(=O)[C@H]1OC(n2cnc3c(NC(=O)Nc4ccc(S(=O)(=O)N(C)C(C)C)cc4)ncnc32)C(O)C1O` (single isomer, unassigned), the inhibition constant Ki was greater than 1000 nM on Adenosine receptor A2a and 325 nM at Adenosine receptor A1.
In the case of `C=CCN(C)S(=O)(=O)c1ccc(NC(=O)Nc2ncnc3c2ncn3C2O[C@H](C(=O)NCC)C(O)C2O)cc1` (single isomer, unassigned), in assay [1], the Ratio was determined as 20.6.
